One data set concerns SCID mice. As to the kind of experiment: Maximum tolerated dose study in mice. To be noted: intratracheal, once daily for 3 consecutive days.

This is an account of results in patent publication US20230337678A1, “NITRIC OXIDE-RELEASING ANTIBACTERIAL COMPOUNDS, FORMULATIONS, AND METHODS PERTAINING THERETO” (KNOW BIO, LLC, priority 2020, published 2023).

`[O-]/[N+](=N\O)C(/[N+]([O-])=N/O)/[N+]([O-])=N/O` displayed a T½ (NO release half-life, Table 14) of 3 h. For the same compound, where the note is “Table 14, unit not given”, the “NO Load” value was 6.7. Under “compositions of MTDD (NCT-19-096) and β-cyclodextrin”, this compound registered an NO-loading of 6.7 µmol/mg. Besides, the “clinical condition of mice” value with SCID mice (1-100 mg/kg, duration of study) is “bright, alert, and responsive”. Moreover, the adverse effects entry in the data set with SCID mice (up to maximum dose group 6 (100 mg/Kg)) is on record as “No adverse effects were observed”.
